The text below walks through data of publication PMC5972182, “Comparison of a Rat Primary Cell-Based Blood-Brain Barrier Model With Epithelial and Brain Endothelial Cell Lines: Gene Expression and Drug Transport” (Frontiers in Molecular Neuroscience, 2018).

Data set [1] concerns Caco-2 intestinal epithelial cell line. The experiment in a line: Permeability across Caco-2 epithelial cell layers. The data set is classed as in vitro ADME, human. As to conditions: CaCo2; Evans blue-labeled albumin 1 mg/ml, 30 min; mean ± SD.
The test system of data set [2] is MDCK canine kidney epithelial cells. The experiment in a line: Permeability across MDCK cell layers. The data set is classed as in vitro ADME. As to conditions: Evans blue-labeled albumin 1 mg/ml, 30 min, mean ± SD.
Data set [3] deals with GP8 rat brain endothelial cell line. As to the kind of experiment: Permeability across GP8 brain endothelial cell line. As to conditions: Evans blue-labeled albumin 1 mg/ml, 30 min, mean ± SD. The data set is classed as in vitro ADME. The protocol: GP8 rat brain endothelial cell line (provided by Dr. John Greenwood, University College London, UK) was cultured in DMEM/ HAM’s F-12, 15% PDS, 100 μg/ml heparin, 1 ng/ml bFGF and 50 μg/ml gentamicin.

For data set [4], the system named is human brain endothelial hCMEC/D3 cell line. The experiment in a line: Permeability across hCMEC/D3 (D3) brain endothelial cell line. The data set is classed as in vitro ADME. To be noted: Evans blue-labeled albumin 1 mg/ml, 30 min, mean ± SD. The protocol:
(§1) Cultures of human brain endothelial hCMEC/D3 cell line (≤passage number 35) were grown in MCDB 131 medium (Pan Biotech) supplemented with 5% FBS, GlutaMAX (100×, LifeTechnologies, Carlsbad, CA, USA), lipid supplement (100×, Life Technologies, Carlsbad, CA, USA), 10 μg/ml ascorbic acid, 550 nM hydrocortisone, 100 μg/ml heparin, 1 ng/ml basic fibroblast growth factor (bFGF, Roche, USA), 2.5 μg/ml insulin, 2.5 μg/ml transferrin, 2.5 ng/ml sodium selenite and 50 μg/ml gentamicin (Weksler et al., [2005]). For differentiation of this cell line (D3L group), the medium was supplemented with 10 mM lithium chloride (LiCl) at the first change of medium (Paolinelli et al., [2013]). For the three brain endothelial cell lines, we used culture media with very similar or identical composition to those that were originally described for their growth and maintenance.

Data set [5] concerns hCMEC/D3 cells with lithium treatment (D3L). The experiment in a line: Permeability across lithium-treated hCMEC/D3 (D3L) cells. The data set is classed as in vitro ADME, human. As to conditions: D3L (10 mM LiCl); Evans blue-labeled albumin 1 mg/ml, 30 min; mean ± SD. The protocol: as §1
For data set [6], the system named is VB-Caco-2 cells. The experiment in a line: Permeability across vinblastine-selected VB-Caco-2 cell layers. To be noted: VB-CaCo2; Evans blue-labeled albumin 1 mg/ml, 30 min; mean ± SD. On the technique in general: Caco-2 cells form a polarised layer with tight junctions and transporters.
In data set [7] the test system is primary rat brain endothelial cell-based BBB model (EPA). As to the kind of experiment: Permeability across primary rat brain endothelial cell-based triple co-culture BBB model (EPA). To be noted: Evans blue-labeled albumin 1 mg/ml, 30 min, mean ± SD.

“Albumin: albumin (Mw: 65 kDa) labeled with Evans blue, marker of transcellular permeability”: the “Albumin Papp” value in data set [1] is on record as 0.8 ± 0.09 10^−6 cm/s; in data set [2], 0.6 ± 0.05 10^−6 cm/s; in data set [3], 16.5 ± 7.51 10^−6 cm/s; in data set [4] it was 2.1 ± 0.31 10^−6 cm/s; in data set [5] it was 1.7 ±0.12 10^−6 cm/s; in data set [6], 0.2 ± 0.08 10^−6 cm/s. For the same substance, in data set [7], the “Albumin Papp” value is 0.2 ± 0.03 10^−6 cm/s.
